The species entered for assay [1] is Homo sapiens. Briefly: Selectivity index, ratio of Ki for human kallikrein to Ki for human activated Factor X.
For assay [2], the species on record is Homo sapiens. Nature of the assay: Selectivity index, ratio of Ki for human uPA to Ki for human activated Factor X.
Assay [3] is filed under the species Homo sapiens. Nature of the assay: Selectivity index, ratio of Ki for human tPA to Ki for human activated Factor X.
The species entered for assay [4] is Homo sapiens. Briefly: Selectivity index, ratio of Ki for human activated Factor XI to Ki for human activated Factor X.
For assay [5], the species on record is Homo sapiens. Briefly: Selectivity index, ratio of Ki for human trypsin to Ki for human activated Factor X.
For assay [6], the species on record is Homo sapiens. Nature of the assay: Selectivity index, ratio of Ki for human chymotrypsin to Ki for human activated Factor X.
The species named for assay [7] is Homo sapiens. Briefly: Selectivity index, ratio of Ki for human activated Factor IX to Ki for human activated Factor X.
Assay [8] is filed under the species Homo sapiens. Nature of the assay: Selectivity index, ratio of Ki for human activated Factor XII to Ki for human activated Factor X.
For assay [9], the species on record is Homo sapiens. Briefly: Selectivity index, ratio of Ki for human activated Factor VII to Ki for human activated Factor X.

Regarding `CCOC(=O)[C@]1(C)CCC[C@@]2(C)[C@@H]3CC[C@@]4(C)C[C@]3(CC[C@@H]21)C/C4=N\OCc1ccsc1`, the Ratio Ki is 80 to 300 in the assay listed under Homo sapiens [1]; 80 to 300 in the assay listed under Homo sapiens [2]; 80 to 300 in the assay listed under Homo sapiens [3]; 80 to 300 in the assay filed under Homo sapiens [4]; 80 to 300 in the assay filed under Homo sapiens [5]; > 500 in the assay listed under Homo sapiens [6]. Further, the Ratio Ki in the assay listed under Homo sapiens [7], in the assay filed under Homo sapiens [8] and in the assay listed under Homo sapiens [9] was > 500 throughout.

As for `CCOC(=O)[C@]1(C)CCC[C@@]2(C)[C@@H]3CC[C@@]4(C)C[C@]3(CC[C@@H]21)C/C4=N\OCC1(C)COC1`, the Ratio Ki in the assay listed under Homo sapiens [1] and in the assay listed under Homo sapiens [5] was < 20 each time.

The values above are taken from ChEMBL document CHEMBL4311982, “Discovery of novel, potent, isosteviol-based antithrombotic agents” (Eur J Med Chem, 2019).
